Assay in all cases: In vitro HPPD activity assay
Assay type in all cases: biochemical, Scenedesmus obliquus

The test system of assay [1] is Scenedesmus HPPD with glutamine 317 exchanged to methionine, alanine 318 substituted by glycine and glutamate 345 mutated to glutamin. As to conditions: in words, from Table 6 data. As to the method:
(§1) HPPD produces homogentisic acid and CO2 from 4-hydroxyphenylpyruvate (4-HPP) and O2. The activity assay for HPPD is based on the analysis of homogentisic acid by reversed phase HPLC.
(§2) The assay mixture can contain 150 mM potassium phosphate buffer pH 7.0, 50 mM L-ascorbic acid, 100 μM Catalase (Sigma-Aldrich), 1 μM FeSO4 and 0.2 units of purified mutated HPPD enzyme in a total volume of 505 μl. 1 unit is defined as the amount of enzyme that is required to produce 1 nmol of HGA per minute at 20° C.
(§3) After a preincubation of 30 min the reaction is started by adding 4-HPP to a final concentration of 0.05 mM. The reaction is allowed to proceed for 45 min at room temperature. The reaction is stopped by the addition of 50 μl of 4.5 M phosphoric acid. The sample is filtered using a […] pore size PVDF filtration device.
(§4) 5 μl of the cleared sample is analyzed on an UPLC HSS T3 column (particle size 1.8 μm, dimensions 2.1×50 mm; Waters) by isocratic elution using 90% 20 mM NaH2PO4 pH 2.2, 10% methanol (v/v).
(§5) HGA is detected electrochemically at 750 mV (mode: DC; polarity: positive) and quantified by integrating peak areas (Empower software; Waters).
Inhibitors are dissolved in DMSO (dimethylsulfoxide) to a concentration of 0.5 mM. From this stock solution serial five-fold dilutions are prepared in DMSO, which are used in the assay. The respective inhibitor solution accounts for 1% of the assay volume. […] Activities are normalized by setting the uninhibited enzyme activity to 100%. IC50 values are calculated using non-linear regression.
Using methods which are described in the above examples or well known in the art, purified, recombinant mutated HPPD enzymes are characterized with respect to their kinetic properties and sensitivity towards HPPD inhibiting herbicides. Apparent michaelis constants (Km) and maximal reaction velocities (Vmax) are calculated by non-linear regression with the software GraphPad Prism 5 (GraphPad Software, La Jolla, USA) using a substrate inhibition model. […] Weighted means (by standard error) of Km and IC50 values are calculated from at least three independent experiments.
(§6) Field performance of the HPPD enzyme, which is used as a herbicide tolerance trait may depend not only on its lack of sensitivity towards HPPD inhibiting herbicides but also on its activity. To assess the potential performance of a herbicide tolerance trait a tolerance index (TI) is calculated using the following formula: […]
(§7) Easy comparison and ranking of each trait is enabled by normalizing tolerance indexes on Arabidopsis wild-type HPPD.

In a further assay the test system is SoHPPD V251A (short). The conditions noted are these: normalized on Arabidopsis wild-type HPPD (SEQ ID NO:42). As to the method: as §1, §2, §3, §4, §5
(§8) Inhibitors are dissolved in DMSO (dimethylsulfoxide) to a concentration of 0.5 mM. From this stock solution serial five-fold dilutions are prepared in DMSO, which are used in the assay. The respective inhibitor solution accounts for 1% of the assay volume. Thus, final inhibitor concentrations range from 5 μM to 320 pM, respectively. Activities are normalized by setting the uninhibited enzyme activity to 100%. IC50 values are calculated using non-linear regression.
(§9) Using methods which are described in the above examples or well known in the art, purified, recombinant mutated HPPD enzymes are characterized with respect to their kinetic properties and sensitivity towards HPPD inhibiting herbicides. Apparent michaelis constants (Km) and maximal reaction velocities (Vmax) are calculated by non-linear regression with the software GraphPad Prism 5 (GraphPad Software, La Jolla, USA) using a substrate inhibition model. Apparent kcat values are calculated from Vmax assuming 100% purity of the enzyme preparation. Weighted means (by standard error) of Km and IC50 values are calculated from at least three independent experiments. The Cheng-Prusoff equation for competitive inhibition (Cheng, Y. C.; Prusoff, W. H. Biochem Pharmacol 1973, 22, 3099-3108) is used to calculate dissociation constants (Ki).
as §6, §7

The subject of another assay is SoHPPD F363I. The conditions noted are these: normalized on Arabidopsis wild-type HPPD (SEQ ID NO:42). The protocol: as §1, §2, §3, §4, §5, §8, §9, §6, §7
Another assay deals with SoHPPD Q317H (short). As to conditions: normalized on Arabidopsis wild-type HPPD (SEQ ID NO:42). As to the method: as §1, §2, §3, §4, §5, §8, §9, §6, §7
The test system of another assay is SoHPPD A318R, L350M. As to conditions: normalized on Arabidopsis wild-type HPPD (SEQ ID NO:42). As to the method: as §1, §2, §3, §4, §5, §8, §9, §6, §7
Assay [2] concerns SoHPPD A318R, L350M (short). The conditions noted are these: normalized on Arabidopsis wild-type HPPD (SEQ ID NO:42). The protocol:
as §1, §2, §3, §4, §5, §8, §9, §6, §7

Assay [3] has as its system SoHPPD V251A, H306R, Q317L, A318P, G321P, K331E, L350M (short). As to conditions: normalized on Arabidopsis wild-type HPPD (SEQ ID NO:42). The protocol:
as §1, §2, §3, §4, §5, §8, §9, §6, §7

The test system of the next assay is SoHPPD I419V (short). As to conditions: normalized on Arabidopsis wild-type HPPD (SEQ ID NO:42). As to the method: as §1, §2, §3, §4, §5, §8, §9, §6, §7
For assay [4], the system named is SoHPPD E345Q, K326D (short). The conditions noted are these: normalized on Arabidopsis wild-type HPPD (SEQ ID NO:42). The protocol:
as §1, §2, §3, §4, §5, §8, §9, §6, §7

Assay [5] deals with SoHPPD E345Q, K326Q (short). As to conditions: normalized on Arabidopsis wild-type HPPD (SEQ ID NO:42). The protocol:
as §1, §2, §3, §4, §5, §8, §9, §6, §7

A further assay deals with SoHPPD Q317H. As to conditions: normalized on Arabidopsis wild-type HPPD (SEQ ID NO:42). As to the method: as §1, §2, §3, §4, §5, §8, §9, §6, §7
In assay [6] the test system is SoHPPD A318P, A319P (short). As to conditions: normalized on Arabidopsis wild-type HPPD (SEQ ID NO:42). As to the method:
as §1, §2, §3, §4, §5, §8, §9, §6, §7

Another assay has as its system SoHPPD I455V. As to conditions: normalized on Arabidopsis wild-type HPPD (SEQ ID NO:42). The protocol:
as §1, §2, §3, §4, §5, §8, §9, §6, §7

A further assay has as its system SoHPPD L367V, I375L. As to conditions: normalized on Arabidopsis wild-type HPPD (SEQ ID NO:42). The protocol:
as §1, §2, §3, §4, §5, §8, §9, §6, §7

The next assay deals with SoHPPD F363I (short). As to conditions: normalized on Arabidopsis wild-type HPPD (SEQ ID NO:42). The protocol:
as §1, §2, §3, §4, §5, §8, §9, §6, §7

“And” between values parts separate entries of the source, which are not always exact repeats. Identical values can stand only once. “Also recorded” adds a separate entry of the source.

As for `Cc1c(C(=O)c2cnn(C)c2O)ccc(S(C)(=O)=O)c1C1=NOCC1` [Inhibitor 1, [3-(4,5-dihydroisoxazol-3-yl)-2-methyl-4-methylsulfonyl-phenyl]-(5-hydroxy-1-methyl-pyrazol-4-yl)methanone], the “resistance of the enzyme to the inhibitor” value in assay [1] is on record as “conferred resistance”. Further, the “TI (normalized tolerance index)” value amounted to 0.5 with SoHPPD V251A (short); 4 in the assay on SoHPPD F363I; 6.1 in the assay with SoHPPD Q317H (short); 3.8 in the assay on SoHPPD A318R, L350M; 12.9 in assay [2]; 11.5 in assay [3]. Also, the “TI (normalized tolerance index)” value with SoHPPD I419V (short) is on record as 0.8; in assay [4] it was 2.1; in assay [5], 1.8; in the assay with SoHPPD Q317H, 1.9; in [6] it was 4.6; in the assay on SoHPPD I455V, 3.3. Also, in the assay on SoHPPD L367V, I375L, the “TI (normalized tolerance index)” value worked out at 1.2.

For `CN(c1c(Cl)ccc(C2=C(O)c3ncccc3C(C)(C)S2(=O)=O)c1Cl)S(C)(=O)=O` [Inhibitor 3, N-[2,6-dichloro-3-(8-hydroxy-5,5-dimethyl-6,6-dioxo-thiopyrano[4,3-b]pyridin-7-yl)phenyl]-N-methyl-methanesulfonamide], the “resistance of the enzyme to the inhibitor” value in assay [1] is on record as “conferred resistance”. The “TI (normalized tolerance index)” value in the assay on SoHPPD V251A (short) was found to be 0.1; in the assay with SoHPPD F363I, 0.8; with SoHPPD Q317H (short) it was 2.0; in the assay with SoHPPD A318R, L350M, 1.0; in [2] it was 2.5; in assay [3], 1.1. The “TI (normalized tolerance index)” value came to 0.9 with SoHPPD I419V (short); 0.8 in assay [4]; 0.5 in [5]; 1.7 in the assay on SoHPPD F363I (short); 0.8 in the assay on SoHPPD Q317H; 2.0 in [6]. The “TI (normalized tolerance index)” value in the assay with SoHPPD I455V came to 1.4; in the assay with SoHPPD L367V, I375L it was 0.5.

Consider `Cc1nonc1NC(=O)c1ccc(S(C)(=O)=O)c(S(C)(=O)=O)c1C` [Inhibitor 6, 2-methyl-N-(4-methyl-1,2,5-oxadiazol-3-yl)-3,4-bis(methylsulfonyl)benzamide], for which the “resistance of the enzyme to the inhibitor” value in assay [1] is on record as “conferred resistance”. Also, the “TI (normalized tolerance index)” value is 0.4 in the assay on SoHPPD V251A (short); 61.1 in the assay with SoHPPD F363I; 4.1 in the assay with SoHPPD Q317H (short); 1.3 with SoHPPD A318R, L350M; 8.6 in [2]; 18.2 and 18.3 in [3]. For the same compound, the “TI (normalized tolerance index)” value in the assay on SoHPPD I419V (short) is on record as 1.5; in [4], 1.2; in [5], 1.1; in the assay with SoHPPD F363I (short) it was “not inhibited; also recorded: no inhi-”; in the assay on SoHPPD Q317H it was 1.0; in assay [6], 3.3. The “TI (normalized tolerance index)” value amounted to 2.1 in the assay with SoHPPD I455V and 0.6 with SoHPPD L367V, I375L.

Consider `CSc1c(Cl)cc(F)c(C(=O)Nc2nnnn2C)c1Cl` [Inhibitor 7, 2,4-dichloro-6-fluoro-3-methylsulfanyl-N-(1-methyltetrazol-5-yl)benzamide], for which the “resistance of the enzyme to the inhibitor” value in [1] was “conferred resistance”. The “TI (normalized tolerance index)” value in the assay with SoHPPD V251A (short) is 0.0; with SoHPPD F363I it was 0.2; in the assay on SoHPPD Q317H (short) it was 1.4; in the assay with SoHPPD A318R, L350M, 0.1; in assay [2], 0.7; in assay [3], 0.1. Moreover, the “TI (normalized tolerance index)” value in the assay with SoHPPD I419V (short) was 0.2; in assay [4], 0.3; in assay [5], 0.2; in the assay on SoHPPD F363I (short) it was 1.7; in the assay with SoHPPD Q317H, 0.1; in assay [6] it was 0.6. In addition, the “TI (normalized tolerance index)” value in the assay on SoHPPD I455V is 0.3; with SoHPPD L367V, I375L, 0.0.
